Consider nine molecules from patent US7579432B2, “Cyclic peptides as G-protein-coupled receptor antagonists” (Promics Pty Limited, priority 2001, dated 2009).

Bridge positions count the residues as written; N and C are the ends. Square brackets hold non-standard residues; d marks the D form. Peptide text beside a SMILES is read from it. 1Nal = N[C@@H](Cc1cccc2ccccc12)C(=O)O; Bta = N[C@@H](Cc1csc2ccccc12)C(=O)O; Tic = O=C(O)[C@@H]1Cc2ccccc2CN1; Cha = N[C@@H](CC1CCCCC1)C(=O)O; dCha = N[C@H](CC1CCCCC1)C(=O)O; Orn = NCCC[C@H](N)C(=O)O

In assay [1] the target is T1, C5a receptor on human polymorphonuclear leukocytes (C5a-stimulated human PMNs) (Homo sapiens, UniProt P21730).
T1 construct: Cells were isolated as previously described (Sanderson et al, 1995) and incubated with cytochalasin B; endogenous in cells; host or cells: isolated human polymorphonuclear leukocytes (PMNs)
T1 sequence (P21730 1-350): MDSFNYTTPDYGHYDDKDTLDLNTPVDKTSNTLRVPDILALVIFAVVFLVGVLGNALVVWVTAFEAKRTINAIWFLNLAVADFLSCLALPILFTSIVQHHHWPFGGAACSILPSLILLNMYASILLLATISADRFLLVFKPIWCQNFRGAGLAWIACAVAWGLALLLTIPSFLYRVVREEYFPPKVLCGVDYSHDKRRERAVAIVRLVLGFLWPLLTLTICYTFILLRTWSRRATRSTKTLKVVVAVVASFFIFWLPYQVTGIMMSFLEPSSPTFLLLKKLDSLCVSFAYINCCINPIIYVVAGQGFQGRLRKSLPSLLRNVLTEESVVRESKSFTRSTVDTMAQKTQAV
As to the kind of experiment: Myeloperoxidase release assay for antagonist activity. The class given is cell-based. The note with it: for IC50: myeloperoxidase release from human PMNs, C5a 100 nM; for antagonist potency compared with compound 1: structure-activity discussion.

In assay [2] the target is T2, C5a receptor on human polymorphonuclear leukocytes (Homo sapiens, UniProt P21730).
T2 sequence (P21730 1-350): T1 sequence (P21730 1-350)
As to the kind of experiment: biochemical. To be noted: Binding IC50, human PMNs, 4° C., 60 min.

In assay [3] the target is T2, C5a receptor on human polymorphonuclear leukocytes. The note with it: structure-activity discussion.

`CC(=O)N[C@@H](Cc1ccccc1)C(=O)N[C@H]1CCCNC(=O)[C@H](CCCNC(=N)N)NC(=O)[C@H](Cc2c[nH]c3ccccc23)NC(=O)[C@@H](Cc2ccc(O)cc2)NC(=O)[C@@H]2CCCN2C1=O` [Compound 40, AcF[OP-dTyr-WR]]: the values for the concentration for half-maximal inhibition (IC50) in assay [1] and in assay [2] were 0.3 µM and 2.16 µM, respectively.

For the molecule `CC(=O)N[C@@H](Cc1ccccc1)C(=O)N[C@H]1CCCNC(=O)[C@H](CCCNC(N)=O)NC(=O)[C@H](Cc2c[nH]c3ccccc23)NC(=O)[C@@H](CC2CCCCC2)NC(=O)[C@@H]2CCCN2C1=O` [Compound 45, AcF[OPdChaW-Cit]], in assay [1], half-maximal inhibition (IC50) was put at 0.69 µM and the “antagonist potency compared with compound 1” value is “appreciable antagonist potency”. Moreover, in assay [2], the 50% inhibitory concentration (IC50) is 6 µM.

In the case of `CC(=O)N[C@@H](Cc1ccccc1)C(=O)N[C@H]1CCCNC(=O)[C@H](CCCNC(=N)N)NC(=O)[C@H](CC2CCCCC2)NC(=O)[C@@H](CC2CCCCC2)NC(=O)[C@@H]2CCCN2C1=O` [Compound 50, AcF[OP-dCha-Cha-R]] (Ac-F[Orn]P[dCha][Cha]R; lactam 2-C (inferred)), the IC50 in assay [1] stood at 4.5 µM; in assay [2], 11.9 µM.

Regarding `CC(=O)N[C@@H](Cc1ccccc1)C(=O)N[C@H]1CCCNC(=O)[C@H](CCCNC(=N)N)NC(=O)[C@H](CC(C)C)NC(=O)[C@@H](CC2CCCCC2)NC(=O)[C@@H]2CCCN2C1=O` [Compound 51, AcF[OP-dCha-LR]] (Ac-F[Orn]P[dCha]LR; lactam 2-C), the half-maximal inhibitory concentration (IC50) in assay [1] came to 3 µM; in assay [2], 18.9 µM.

On to `CC(=O)N[C@@H](Cc1ccccc1)C(=O)N[C@H]1CCCNC(=O)[C@H](CCCNC(=N)N)NC(=O)[C@H](Cc2cccc3ccccc23)NC(=O)[C@@H](CC2CCCCC2)NC(=O)[C@@H]2CCCN2C1=O` [Compound 52, AcF[OP-dCha-1Nal-R]] (Ac-F[Orn]P[dCha][1Nal]R; lactam 2-C), for which the IC50 in assay [1] came to 0.0466 µM; in assay [2], 0.71 µM.

On to `CC(=O)N[C@@H](Cc1ccccc1)C(=O)N[C@H]1CCCNC(=O)[C@H](CCCNC(=N)N)NC(=O)[C@@H]2Cc3ccccc3CN2C(=O)[C@@H](CC2CCCCC2)NC(=O)[C@@H]2CCCN2C1=O` [Compound 56, AcF[OPdCha-Tic-R]] (Ac-F[Orn]P[dCha][Tic]R; lactam 2-C), for which the half-maximal inhibitory concentration (IC50) in assay [1] came to 10.9 µM; in assay [2], 3.73 µM.

As for `CC(=O)N[C@@H](Cc1ccccc1)C(=O)N[C@H]1CCCNC(=O)[C@H](CCCNC(=N)N)NC(=O)[C@H](Cc2csc3ccccc23)NC(=O)[C@@H](CC2CCCCC2)NC(=O)[C@@H]2CCCN2C1=O` [Compound 58, AcF[OP-dCha-Bta-R]] (Ac-F[Orn]P[dCha][Bta]R; lactam 2-C), the results for the IC50 in assay [1] and in assay [2] were 0.172 µM and 0.28 µM, respectively.

Consider `CC(=O)N[C@@H](Cc1ccccc1)C(=O)N[C@H]1CCCNC(=O)[C@H](CCCNC(=N)N)NC(=O)[C@H](Cc2ccccc2)NC(=O)[C@@H](CC2CCCCC2)NC(=O)[C@@H]2CCCN2C1=O` [Compound 60, AcF-[OPdChaFR]] (Ac-F[Orn]P[dCha]FR; lactam 2-C (inferred)), for which, in assay [1], the 50% inhibitory concentration (IC50) is 0.032 µM and the “antagonist potency compared with compound 1” value is “little change in antagonist potency”. This molecule also showed an IC50 in assay [2] of 0.25 µM.

Regarding `CC(=O)N[C@@H](Cc1ccccc1)C(=O)N[C@H]1CCCNC(=O)[C@H](CCCNC(=N)N)NC(=O)[C@H](Cc2c[nH]c3ccccc23)NC(=O)[C@@H](Cc2ccccc2)N(C)C(=O)[C@@H]2CCCN2C1=O` [Compound 65], the “antagonist potency compared with compound 1” value in assay [1] is recorded as “tends to reduce”. In addition, the “receptor binding affinity compared with compound 1” value in assay [3] was “tends to reduce”.

As usually defined, the IC50 is the concentration at which inhibition is half-maximal.
